Measurements reported in ChEMBL document CHEMBL4024757, “Application of the Ugi Multicomponent Reaction in the Synthesis of Reactivators of Nerve Agent Inhibited Acetylcholinesterase” (2017).

Chains of the proteins cited; added tags and fusions are not shown. Residues count along the entry.
UniProt P22303, 32-614 limits assumed: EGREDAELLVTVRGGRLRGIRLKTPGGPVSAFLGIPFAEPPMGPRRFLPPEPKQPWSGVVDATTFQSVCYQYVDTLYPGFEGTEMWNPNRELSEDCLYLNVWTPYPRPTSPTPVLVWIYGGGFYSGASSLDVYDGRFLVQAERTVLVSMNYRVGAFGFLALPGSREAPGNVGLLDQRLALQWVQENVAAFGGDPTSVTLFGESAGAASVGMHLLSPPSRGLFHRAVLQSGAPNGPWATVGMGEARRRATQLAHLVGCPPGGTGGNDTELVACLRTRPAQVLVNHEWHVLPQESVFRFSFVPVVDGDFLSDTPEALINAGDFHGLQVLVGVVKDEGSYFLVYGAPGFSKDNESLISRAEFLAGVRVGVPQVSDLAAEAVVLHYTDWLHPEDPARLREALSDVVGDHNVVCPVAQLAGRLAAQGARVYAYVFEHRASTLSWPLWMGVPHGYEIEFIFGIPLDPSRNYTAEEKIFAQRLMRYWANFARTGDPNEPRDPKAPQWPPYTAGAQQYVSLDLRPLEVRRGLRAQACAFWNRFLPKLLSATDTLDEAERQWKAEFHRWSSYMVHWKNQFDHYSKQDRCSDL

Legend:
Acetylcholinesterase [1] = biological target: T1, Acetylcholinesterase (Homo sapiens, UniProt P22303); assay: Reactivation of cyclosarin inhibited human erythrocyte AChE using acetylthiocholine iodide as substrate preincubated up to 60 mins followed by substrate addition measured for 3 mins by Ellman's method
Acetylcholinesterase [2] = biological target: T1, Acetylcholinesterase; assay: Reactivation of sarin inhibited human erythrocyte AChE using acetylthiocholine iodide as substrate preincubated up to 60 mins followed by substrate addition measured for 3 mins by Ellman's method
Acetylcholinesterase [3] = biological target: T1, Acetylcholinesterase; assay: Reactivation of VX inhibited human erythrocyte AChE using acetylthiocholine iodide as substrate preincubated up to 60 mins followed by substrate addition measured for 3 mins by Ellman's method

Which Kd (Acetylcholinesterase [1]) does the source give for NC(=O)c1cc[n+](COC[n+]2ccc(/C=N/O)cc2)cc1 here?
The Kd was 47.2 µM.

And the Kd (Acetylcholinesterase [2])?
Its Kd is 50.1 µM.

And the Kd (Acetylcholinesterase [3])?
The Kd was 11.5 µM.
